Only a part is listed here, and it is no random draw. Records with an inconclusive call do not appear. Active and inactive are the calls of the source. Calls come from the whole dose curve; as a rule, active = well fitted inhibition curve with a large enough effect; inconclusive = small, poorly fitted or top-dose-only effect; inactive = no such curve, though single readings can be large or run the other way.
% is set by controls: 0 for no effect and ±100 for the full control effect.

Sequences of proteins named here, by UniProt entry; tags and fusion partners are left off.
UniProt P16050, whole entry: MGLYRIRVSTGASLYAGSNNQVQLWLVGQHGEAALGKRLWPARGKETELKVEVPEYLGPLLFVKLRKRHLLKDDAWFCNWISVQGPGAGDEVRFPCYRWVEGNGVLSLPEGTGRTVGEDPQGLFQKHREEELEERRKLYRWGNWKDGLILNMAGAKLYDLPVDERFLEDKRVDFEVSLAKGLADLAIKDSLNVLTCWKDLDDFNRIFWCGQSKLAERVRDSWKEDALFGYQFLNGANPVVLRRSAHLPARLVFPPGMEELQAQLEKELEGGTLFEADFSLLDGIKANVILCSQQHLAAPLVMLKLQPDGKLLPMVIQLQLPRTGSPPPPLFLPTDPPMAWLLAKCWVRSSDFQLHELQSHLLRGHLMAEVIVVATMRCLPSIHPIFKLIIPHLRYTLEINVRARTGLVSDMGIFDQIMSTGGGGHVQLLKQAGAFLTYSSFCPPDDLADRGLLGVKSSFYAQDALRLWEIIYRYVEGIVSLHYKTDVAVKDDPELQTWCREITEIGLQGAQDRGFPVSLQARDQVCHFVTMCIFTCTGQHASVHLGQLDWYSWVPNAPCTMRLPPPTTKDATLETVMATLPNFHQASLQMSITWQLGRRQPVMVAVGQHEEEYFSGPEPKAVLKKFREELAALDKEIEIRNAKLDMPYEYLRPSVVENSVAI

In this assay the target is Polyunsaturated fatty acid lipoxygenase ALOX15 (Homo sapiens) (UniProt P16050). The assay is described as follows: qHTS Assay for Inhibitors of 15-hLO (15-human lipoxygenase). Note: nearly all actives have a fitted effect of over 55% in size. As to conditions: purified 15hLO-1, xylenol orange hydroperoxide absorbance; at 57.1 µM (top of the series).
Regarding `CN(CCCl)CCCl`, the activity change, negative = inhibition was inactive: -29.2%. In the case of `O=[N+]([O-])C(Cl)(Cl)Cl` it was inactive: 1.59%.

Source of the values: PubChem BioAssay AID887 (National Center for Advancing Translational Sciences (NCATS), 2007).
